Where two headings read alike, the source gives them in different places.
Key:
[1] = target: T1, human mGluR2 (hmGluR2) transiently over-expressed in HEK-293 cells (Homo sapiens, UniProt Q14416); experiment: Human mGluR2 negative allosteric modulator evaluation using Ca++ functional assay (agonist and NAM activity); assay type: cell-based
T1 construct: expressed in transfected cells; host or cells: HEK-293 cells, transient co-transfection by electroporation
Protocol: Human mGluR2 Negative Allosteric Modulator Evaluation Using Ca^++ Functional Assay
Compounds of the present invention were tested successively for their agonist and negative allosteric modulator activities on human mGluR2 (hmGluR2) transiently over-expressed in HEK-293 cells. They exert agonist activity if they are able to activate mGluR2 by themselves, i.e., in absence of the endogenous agonist glutamate; and they exert negative allosteric modulator activity if they decrease the action of the endogenous agonist glutamate.
HEK-293 cells were maintained in Modified Eagle's Medium supplemented with 10% Foetal Calf Serum, 1% Penicillin/Streptomycin and 1% nonessential amino acids at 37° C./5% CO2.
Cells were plated after transfection onto polyornithine coated, clear bottom, black-walled, 96-well plates and cultured for 24 h.
Receptor activity was detected by changes in intracellular calcium measured using the fluorescent Ca^2+ sensitive dye, Fluo4AM (Molecular Probes).
The day of the assay, medium was aspirated and replaced during 3 hours by medium without serum supplemented with 1% Glutamax, 1% Penicillin/Streptomycin and 1% nonessential amino acids. Then, cells were washed with freshly prepared buffer B (HBSS 1× (PAA), Hepes 20 mM, MgSO4-7H2O 1 mM, Na2CO3 3.3 mM, CaCl2-2H2O 1.3 mM, 0.5% BSA, Probenecid 2.5 mM) and loaded at 37° C./5% CO2 for 1.5 hours with buffer B containing 1 μM Fluo4AM, 0.1 mg/mL Pluronic Acid, 7 μg/mL Glutamate Pyruvate Transaminase and 2 mM sodium pyruvate. Afterwards cells were washed twice with buffer B and 50 μL of this buffer were added to each well.
Agonist and negative allosteric modulator activities of compounds were consecutively evaluated on the same cells plate. […] Then, the cells were stimulated by an EC80 glutamate concentration and fluorescence was recorded for additional 60 s. EC80 glutamate concentration is the concentration giving 80% of the maximal glutamate response. Agonist and/or negative allosteric modulator activity(ies) were evaluated in comparison to basal signal or signal evoked by EC80 glutamate alone, respectively.
For potency determination, a dose-response test was performed using 8 concentrations of each compound of the invention. Dose-response curves were fitted using the sigmoidal dose-response (variable slope) analysis in GraphPad Prism program (Graph Pad Inc) and EC50 of agonist/IC50 of negative allosteric modulator activity was calculated. Dose-response experiments were all performed in duplicate, two times independently.

Chains of the proteins cited; added tags and fusions are not shown. Residues count along the entry.
UniProt Q14416, 19-872: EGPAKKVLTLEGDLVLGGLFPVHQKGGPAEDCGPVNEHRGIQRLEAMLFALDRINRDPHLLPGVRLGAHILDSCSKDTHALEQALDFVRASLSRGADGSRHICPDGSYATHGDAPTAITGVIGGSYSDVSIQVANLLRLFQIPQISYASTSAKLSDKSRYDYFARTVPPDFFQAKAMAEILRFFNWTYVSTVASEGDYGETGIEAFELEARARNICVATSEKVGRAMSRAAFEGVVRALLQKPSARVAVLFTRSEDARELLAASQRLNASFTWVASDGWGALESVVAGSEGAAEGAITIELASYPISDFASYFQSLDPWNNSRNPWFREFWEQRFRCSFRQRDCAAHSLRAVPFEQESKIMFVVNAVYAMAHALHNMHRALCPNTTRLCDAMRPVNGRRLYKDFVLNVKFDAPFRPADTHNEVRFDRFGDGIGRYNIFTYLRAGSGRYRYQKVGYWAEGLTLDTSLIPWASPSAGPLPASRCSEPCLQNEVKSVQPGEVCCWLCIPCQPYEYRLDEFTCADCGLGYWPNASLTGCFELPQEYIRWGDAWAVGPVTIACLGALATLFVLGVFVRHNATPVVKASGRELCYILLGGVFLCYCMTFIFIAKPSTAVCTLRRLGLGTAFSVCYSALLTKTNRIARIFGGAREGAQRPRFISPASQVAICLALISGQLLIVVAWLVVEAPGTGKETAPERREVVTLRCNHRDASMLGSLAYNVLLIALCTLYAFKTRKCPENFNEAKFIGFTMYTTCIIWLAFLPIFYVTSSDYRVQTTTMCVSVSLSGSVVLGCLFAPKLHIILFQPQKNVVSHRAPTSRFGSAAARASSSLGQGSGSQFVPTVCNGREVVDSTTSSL
UniProt Q14832, 23-879: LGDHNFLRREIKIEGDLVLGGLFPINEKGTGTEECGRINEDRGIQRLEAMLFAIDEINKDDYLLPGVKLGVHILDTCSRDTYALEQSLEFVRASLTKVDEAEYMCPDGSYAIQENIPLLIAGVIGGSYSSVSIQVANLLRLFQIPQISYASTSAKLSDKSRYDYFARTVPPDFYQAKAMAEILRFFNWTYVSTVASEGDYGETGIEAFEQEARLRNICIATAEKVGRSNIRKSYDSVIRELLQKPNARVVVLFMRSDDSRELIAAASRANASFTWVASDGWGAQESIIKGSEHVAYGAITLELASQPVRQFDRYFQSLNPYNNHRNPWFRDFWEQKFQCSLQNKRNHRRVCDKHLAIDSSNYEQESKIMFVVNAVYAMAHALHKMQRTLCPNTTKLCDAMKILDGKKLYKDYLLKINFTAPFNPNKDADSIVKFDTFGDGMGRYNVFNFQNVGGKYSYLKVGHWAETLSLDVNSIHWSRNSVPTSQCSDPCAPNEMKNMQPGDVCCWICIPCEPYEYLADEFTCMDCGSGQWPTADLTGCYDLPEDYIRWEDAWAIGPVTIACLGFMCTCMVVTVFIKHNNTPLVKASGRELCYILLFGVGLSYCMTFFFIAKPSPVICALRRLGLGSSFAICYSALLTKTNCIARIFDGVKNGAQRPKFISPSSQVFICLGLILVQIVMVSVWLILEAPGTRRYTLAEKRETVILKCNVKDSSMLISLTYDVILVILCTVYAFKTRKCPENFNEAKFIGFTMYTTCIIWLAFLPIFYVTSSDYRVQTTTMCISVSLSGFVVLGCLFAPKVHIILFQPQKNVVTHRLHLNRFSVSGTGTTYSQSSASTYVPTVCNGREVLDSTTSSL

[2] = target: human mGluR3 (hmGluR3) (Homo sapiens, UniProt Q14832); experiment: mGluR3 negative allosteric modulator activity; assay type: cell-based
[3] = mGluR2 negative allosteric modulator activity IC50

Compound | IC50 [1, 3] [nM] | IC50 [2] [nM] | IC50 ([1]; IC50 for mGluR2) [nM] | IC50 ([1]; hmGluR2 in HEK-293 cells, EC80 glutamate, Fluo4AM calcium readout, read-out: mGluR2 negative allosteric modulator activity IC50) [nM]
Cn1c(=O)c2ccc(-c3cccc(-c4nn[nH]n4)c3)cc2n2nc(-c3ccccc3)cc12 [Example 36, 4-Methyl-2-phenyl-8-[3-(2H-tetrazol-5-yl)-phenyl]-4H-pyrazolo[1,5-a]quinazolin-5-one] | < 1000 | – | – | –
Cn1c(=O)c2ccc(-c3cccc(S(N)(=O)=O)c3)cc2n2nc(-c3ccccc3)cc12 [Example 1, 3-(4-Methyl-5-oxo-2-phenyl-4,5-dihydro-pyrazolo[1,5-a]quinazolin-8-yl)-benzenesulfonamide] | < 1000 | < 1000 | < 30 | –
Cn1c(=O)c2ccc(-c3cccc(-c4nn[nH]n4)c3)cc2n2nc(C3CCOCC3)cc12 [Example 96, 4-Methyl-2-(tetrahydro-pyran-4-yl)-8-[3-(2H-tetrazol-5-yl)-phenyl]-4H-pyrazolo[1,5-a]quinazolin-5-one] | < 1000 | – | – | –
Cl.Cn1c(=O)c2ccc(-c3ccc(N)nc3)cc2n2nc(-c3ccccc3)cc12 [Example 2, 8-(6-Amino-pyridin-3-yl)-4-methyl-2-phenyl-4H-pyrazolo[1,5-a]quinazolin-5-one] | – | – | – | < 1000

Source: patent US9434734B2, “Substituted pyrazoloquinazolinones and pyrroloquinazolinones as allosteric modulators of group II metabotropic glutamate receptors” (Domain Therapeutics, priority 2012, dated 2016)
